Experimental data from paper PMC5019189 (European journal of pharmacology, 2015).

Test system: HUVEC
Test: Cell viability
Assay type: cell-based, human

With Cn1cc[nH]c1=S [MMI, 3-methyl-1, 3 imidazole-2 thione] the “TC50 of MMI relative to the phenyl appended compounds” value (MTS, HUVEC) was “two to five times higher” and the “toxic to inhibitory index (TII), ratio of TC50 to IC50” value (TC50 (MTS, HUVEC) / IC50 (VCAM-1 ELISA, HUVEC)) was 2.
